# Measurements from patent US9242969B2, “Biaryl amide compounds as kinase inhibitors” (Novartis AG, priority 2013, dated 2016).
# Biological target: C-Raf TR (Δ1-324 deletion mutant with activating mutations) (Homo sapiens (Human), UniProt P04049, Y340E/Y341E)
# Format: biochemical
# Details: truncated C-Raf (Δ1-324), ATP 3 uM, 10 nM biotinylated MEK1 kinase dead
row,IC50 [nM],Substance
1,0.403,N-(4-methyl-3-(4-morpholinopyridin-2-yl)phenyl)-3-(trifluoromethyl)benzamide [Example 111]
2,0.847,4-methyl-3-(4-morpholinopyridin-2-yl)-N-(3-(trifluoromethyl)phenyl)benzamide [Example 64]

row,Substance,IC50 [nM]
1,"3-(2-(1,1-dioxidothiomorpholino)-6-morpholinopyrimidin-4-yl)-4-methyl-N-(3-(trifluoromethyl)phenyl)benzamide [Example 9]",0.899
